Amino acid sequences for entries named in this document (tags omitted). A change or cut given only in a name is not applied to a line headed by its entry.
UniProt P08173, whole entry: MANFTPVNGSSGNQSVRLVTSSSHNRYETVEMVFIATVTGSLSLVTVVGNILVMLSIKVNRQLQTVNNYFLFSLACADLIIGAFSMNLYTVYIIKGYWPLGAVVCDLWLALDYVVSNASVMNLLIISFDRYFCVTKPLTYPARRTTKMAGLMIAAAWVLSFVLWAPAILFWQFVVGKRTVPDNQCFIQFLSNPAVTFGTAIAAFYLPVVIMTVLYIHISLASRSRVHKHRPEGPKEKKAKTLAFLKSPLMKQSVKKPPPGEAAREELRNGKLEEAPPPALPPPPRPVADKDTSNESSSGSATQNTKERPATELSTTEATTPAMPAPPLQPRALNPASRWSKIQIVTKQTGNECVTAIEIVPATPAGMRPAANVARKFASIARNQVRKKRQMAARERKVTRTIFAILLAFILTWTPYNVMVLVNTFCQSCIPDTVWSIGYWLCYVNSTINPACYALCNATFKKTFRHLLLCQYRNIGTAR
UniProt P11229: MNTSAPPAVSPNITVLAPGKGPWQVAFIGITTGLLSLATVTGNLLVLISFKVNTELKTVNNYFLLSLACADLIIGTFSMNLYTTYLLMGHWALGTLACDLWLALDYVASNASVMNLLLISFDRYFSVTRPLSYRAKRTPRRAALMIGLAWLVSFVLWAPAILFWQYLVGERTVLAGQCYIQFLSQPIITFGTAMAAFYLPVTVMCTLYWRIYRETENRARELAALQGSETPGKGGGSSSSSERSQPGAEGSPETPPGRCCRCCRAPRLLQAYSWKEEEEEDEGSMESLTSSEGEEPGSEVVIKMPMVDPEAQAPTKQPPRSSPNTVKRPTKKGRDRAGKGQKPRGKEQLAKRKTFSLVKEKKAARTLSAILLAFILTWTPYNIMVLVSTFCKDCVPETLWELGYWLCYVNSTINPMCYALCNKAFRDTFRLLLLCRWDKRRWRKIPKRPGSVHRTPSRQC
UniProt P20309, whole entry: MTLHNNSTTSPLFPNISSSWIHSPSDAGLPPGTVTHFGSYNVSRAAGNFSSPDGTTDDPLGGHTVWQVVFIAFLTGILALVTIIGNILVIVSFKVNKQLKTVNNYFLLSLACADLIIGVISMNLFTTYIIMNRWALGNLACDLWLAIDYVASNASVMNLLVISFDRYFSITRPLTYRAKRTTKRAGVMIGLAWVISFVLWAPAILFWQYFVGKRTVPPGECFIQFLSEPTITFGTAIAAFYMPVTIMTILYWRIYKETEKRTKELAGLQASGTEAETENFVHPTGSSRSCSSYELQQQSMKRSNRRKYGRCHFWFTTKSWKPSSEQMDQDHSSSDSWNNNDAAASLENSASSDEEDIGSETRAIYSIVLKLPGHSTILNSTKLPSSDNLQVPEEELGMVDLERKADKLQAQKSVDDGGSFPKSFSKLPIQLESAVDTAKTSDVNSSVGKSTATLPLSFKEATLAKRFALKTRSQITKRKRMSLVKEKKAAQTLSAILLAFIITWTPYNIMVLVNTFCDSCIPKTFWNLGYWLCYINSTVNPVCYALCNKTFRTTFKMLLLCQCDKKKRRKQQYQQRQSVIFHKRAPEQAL

In BindingDB's records for PubMed 1346637 (Mayo Clinic, 1992):

Assays:
[1] = target: Muscarinic acetylcholine receptor M4 (Homo sapiens, UniProt P08173)
[2] = target: Muscarinic acetylcholine receptor M1 (Homo sapiens, UniProt P11229)
[3] = target: Muscarinic acetylcholine receptor M3 (Homo sapiens, UniProt P20309)

SMILES | Ki [1] [nM] | Ki [2] [nM] | Ki [3] [nM]
CN1C2CC(OC(=O)C(CO)c3ccccc3)CC1C1OC12 (stereo not drawn) [3-hydroxy-2-phenyl-propionic acid 9-methyl-3-oxa-9-aza-tricyclo[3.3.1.0*2,4*]non-7-yl ester] | 0.8 | – | –
CN1CCN(C2=c3ccccc3=Nc3ccc(Cl)cc3N2)CC1 [6-chloro-10-(4-methylpiperazin-1-yl)-2,9-diazatricyclo[9.4.0.0^{3,8}]pentadeca-1,3(8),4,6,10,12,14-heptaene] | – | 3.1 | 20
